Apparent affinities of Ab-14 variants for a coronavirus HR2 peptide

Binding partner: SARS-CoV-2 spike HR2 peptide, sequence PDVDLGDISGINAS.

The variants keep the heavy chain, the linker and the frameworks of Ab-14 (scFv order VH, a 15-residue (Gly4Ser)3 linker, VL).
VH: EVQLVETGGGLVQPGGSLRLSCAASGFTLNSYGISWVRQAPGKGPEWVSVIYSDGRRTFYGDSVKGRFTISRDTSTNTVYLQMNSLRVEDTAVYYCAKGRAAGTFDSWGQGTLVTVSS
VL: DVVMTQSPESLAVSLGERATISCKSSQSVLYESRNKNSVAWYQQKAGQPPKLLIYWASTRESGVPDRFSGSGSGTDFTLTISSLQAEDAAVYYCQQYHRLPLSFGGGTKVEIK

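The starting antibody came from a phage panning campaign against this peptide. The library (AAYL50) carries one to three amino acid substitutions per variant, with no insertions or deletions. Affinity was read by AlphaSeq, a pooled yeast mating assay with surface-displayed partners. Pairs that bind mate more often; barcode pairs of the diploids are counted by sequencing. A regression on co-assayed BCL2-family reference pairs converts the normalised counts of each replicate to an apparent Kd. Mating was done three times.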

Changes read parent residue, position, new residue, counted from the first residue of the VL shown. The Kd shown is the geometric mean over detected replicates; a lower Kd is a better binder. A pair that was not seen in any replicate is written "nd"; this usually means weak binding, but a binder can also be missed. In this assay the parent's reference entry averaged 4.4 nM; its copy inside this library read 48 nM.

The variant V29Q A57K S103C gave 430 nM (1 of 3 replicates; controls 0 of 9).
The variant E32F S33H gave nd (0 of 3 replicates; controls 0 of 9).
The variant S28R T59G R60N gave 15 µM (2 of 3 replicates; controls 6 of 9).
The variant N35S P101S gave 53 µM (2 of 3 replicates; controls 3 of 9).
The variant V39K S58Y R60K gave 18 µM (2 of 3 replicates; controls 2 of 9).
The variant R34L S58R T59M gave 6.5 nM (3 of 3 replicates; controls 1 of 9).
The variant K24Q Y31M H98M gave 7.7 nM (3 of 3 replicates; controls 1 of 9).
The variant K36D N37M gave 570 nM (3 of 3 replicates; controls 2 of 9).
The variant S28T Q95W gave nd (0 of 3 replicates; controls 0 of 9).
The variant L100G L102K gave 10 nM (3 of 3 replicates; controls 0 of 9).
The variant N35S P101M S103V gave nd (0 of 3 replicates; controls 0 of 9).
The variant K24E S33M Y97E gave nd (0 of 3 replicates; controls 0 of 9).
The variant S26M K36I L100Y gave 30 nM (3 of 3 replicates; controls 2 of 9).
The variant L30R W56F H98K gave 240 nM (1 of 3 replicates; controls 0 of 9).
The variant N35G R60V Q95W gave nd (0 of 3 replicates; controls 0 of 9).
The variant N35P K36Y S58V gave 2.0 µM (3 of 3 replicates; controls 3 of 9).
The variant Y31W S33Q Q96P gave nd (0 of 3 replicates; controls 0 of 9).
The variant S33Y K36V L102M gave 150 nM (3 of 3 replicates; controls 6 of 9).
The variant S26W Y31P Q96F gave 130 nM (3 of 3 replicates; controls 2 of 9).
The variant R34N R99I gave 1.9 nM (3 of 3 replicates; controls 1 of 9).
The variant Q96E L100R L102I gave 6.0 nM (3 of 3 replicates; controls 0 of 9).
The variant S26F R34A Y97V gave 870 nM (1 of 3 replicates; controls 2 of 9).
The variant S28F Q96A gave 28 nM (3 of 3 replicates; controls 3 of 9).
The variant S33I S58T S103W gave nd (0 of 3 replicates; controls 0 of 9).
The variant K24L S26R L102F gave 260 nM (3 of 3 replicates; controls 1 of 9).
The variant R34V N37Q S62K gave 5.8 nM (3 of 3 replicates; controls 0 of 9).
The variant A40Y S62V Q95M gave 5.3 µM (1 of 3 replicates; controls 2 of 9).
The variant S62E Y97G L102P gave 21 µM (1 of 3 replicates; controls 2 of 9).
The variant S26L L30H gave nd (0 of 3 replicates; controls 0 of 9).
The variant N37L V39N A40M gave nd (0 of 3 replicates; controls 0 of 9).
The variant S33W W56F L102P gave nd (0 of 3 replicates; controls 0 of 9).
The variant A57C S62P L102Q gave 320 µM (1 of 3 replicates; controls 1 of 9).
The variant Q95V L100H gave nd (0 of 3 replicates; controls 1 of 9).
The variant S28N E61G S62P gave 32 nM (3 of 3 replicates; controls 5 of 9).
The variant S33W R34G S38I gave 36 µM (3 of 3 replicates; controls 3 of 9).
The variant S26E S28E A40R gave 1.1 µM (1 of 3 replicates; controls 1 of 9).
The variant V29L Y31P R99P gave 3.1 nM (3 of 3 replicates; controls 7 of 9).
The variant L30V E32T K36H gave 12 nM (3 of 3 replicates; controls 0 of 9).
The variant W56E Q95F R99F gave nd (0 of 3 replicates; controls 2 of 9).
The variant S25L L30D R99C gave 1.9 nM (3 of 3 replicates; controls 4 of 9).
The variant N37M W56V S62H gave nd (0 of 3 replicates; controls 0 of 9).
The variant L30Y R34D K36G gave 6.6 nM (3 of 3 replicates; controls 1 of 9).
The variant S25Y V39N E61P gave nd (0 of 3 replicates; controls 0 of 9).
The variant Q27P S28E L102H gave 8.0 nM (3 of 3 replicates; controls 0 of 9).
The variant N35P A40R S62C gave nd (0 of 3 replicates; controls 1 of 9).
The variant K24W T59Y Q95K gave 130 µM (1 of 3 replicates; controls 0 of 9).
The variant Q27N V29H V39A gave nd (0 of 3 replicates; controls 1 of 9).

The first 3 entries again:

{"changes": "V29Q A57K S103C", "Kd": "430 nM", "seen in": "1/3", "signal with controls": "0/9"}
{"changes": "E32F S33H", "Kd": "nd", "seen in": "0/3", "signal with controls": "0/9"}
{"changes": "S28R T59G R60N", "Kd": "15 µM", "seen in": "2/3", "signal with controls": "6/9"}

Background: pairings of library AAYL50 with three empty control strains gave a value in 18% of cases (median 15 µM, 5th percentile 970 nM). Values in that range, when seen in few replicates, are hard to tell from nonspecific mating. Also given: how often the same scFv was detected with the empty control strains.

Data: MIT Lincoln Laboratory AlphaSeq set, Engelhart et al. 2022, doi:10.1038/s41597-022-01779-4, as distributed in FLAb.